Source: ChEMBL document CHEMBL1130045, “7-Spiroindanyl derivatives of naltrexone and oxymorphone as selective ligands for delta opioid receptors” (J Med Chem, 1997)

Protein sequences, listed by entry. Tags and fused reporters are not part of them. Lines headed by an entry give the natural chain unless they say otherwise; changes in a name come on top.
UniProt P41144: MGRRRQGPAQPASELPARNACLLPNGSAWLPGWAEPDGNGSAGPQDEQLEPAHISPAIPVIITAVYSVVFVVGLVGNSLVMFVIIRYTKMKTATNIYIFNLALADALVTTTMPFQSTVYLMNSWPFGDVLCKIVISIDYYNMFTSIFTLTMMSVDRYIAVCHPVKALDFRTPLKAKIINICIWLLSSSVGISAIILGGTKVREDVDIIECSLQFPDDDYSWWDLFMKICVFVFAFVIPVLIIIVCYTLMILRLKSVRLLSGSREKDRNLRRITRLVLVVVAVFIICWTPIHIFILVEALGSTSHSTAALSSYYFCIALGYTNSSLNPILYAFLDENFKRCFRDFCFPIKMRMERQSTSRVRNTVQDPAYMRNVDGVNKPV
UniProt P97266, whole entry: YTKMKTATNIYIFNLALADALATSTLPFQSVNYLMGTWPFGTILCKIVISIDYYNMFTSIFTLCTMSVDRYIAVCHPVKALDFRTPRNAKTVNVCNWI

Key:
[1] = target: Kappa-type opioid receptor (Cavia porcellus) (UniProt P41144); assay: Antagonist activity against electrically stimulated guinea pig ileum using ethylketazocine (EK) as kappa opioid receptor agonist; type: functional, tissue-based
Summary of the method: (§1)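 Electrically stimulated guinea pig ileum (morphine, μ; ethylketazocine, κ) or mouse vas deferens (DADLE, δ). The test ligand is incubated with the tissue for 15 min, then the agonist curve is run with 100 nM antagonist present. Read-out is the IC50 ratio: agonist IC50 with antagonist divided by the control IC50 in the same preparation. Three or more replicates.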

[2] = target: Mu-type opioid receptor (Cavia porcellus) (UniProt P97266); assay: Antagonist activity against electrically stimulated guinea pig ileum using morphine (M) as mu opioid receptor agonist; type: functional, tissue-based; summary of the method: as §1

O=C1[C@@H]2Oc3c(O)ccc4c3[C@@]23CCN(CC2CC2)[C@H](C4)[C@]3(O)CC12Cc1ccccc1C2
IC50 ratio [1]: 1.95
IC50 ratio [2]: 24.9
